# Columns and labels:
# [1] = test system: male Wistar rats; settings: rat, in vivo
# Description: (§1) A total of 80 male Wistar rats weighing 250-300 gm were used. All animals received humane care during the study protocol and during sacrifice.
# (§2) The study duration was 5 weeks. Peg-INF-α-2a was prepared by diluting the content of a full syringe (180 μg/0.5 ml) in 9.5 ml sterile normal saline to prepare a final volume of 10 ml and the final concentration was 18 μg/ml. Each rat in the ‘P’, ‘PD’, ‘PR’ and ‘PRD’ groups received a weekly subcutaneous injection of 0.33 ml (6 μg/rat) for a total of 4 injections. The drug was prepared fresh on the day of use. […] Cholecalciferol ([…]) was prepared by adding 4 ml to 16 ml saline every morning to form a final concentration of 1000 IU/mL. Each rat in the ‘PD’, ‘PRD’, ‘PR’ and ‘VitD’ groups received 0.5 ml/day (500 IU/day) for the full study duration. Cholecalciferol, and its dose, was chosen over calcitriol, the hormonal form of vitamin D, to avoid the risk of soft tissue calcification (Salum et al, 2012). Following 4 injections, the rats were sacrificed in the fifth week at the time of the 5th injection would have been given. RBV and vitamin D3 were continued till the day before sacrifice.
# (§3) All Rats were sacrificed on the same day under anesthesia using diethyl ether (Fisher Scientific UK Ltd, Loughborough, UK) a week after the last injection. 1 ml of blood was collected on EDTA for CBC and 3 ml of blood were collected in plane tube immediately after cutting the vena cava. Blood samples in plane tubes were centrifuged and the serum was stored in −20° C. for routine biochemistry and to measure serum concentrations of 25-OH vitamin D and EPO.
# The quantitative measurement of serum liver enzymes (ALP, ALT and AST), total and indirect bilirubin, creatinine and urea was done using Cobas e411 (Roche Diagnostics International Ltd, Switzerland) according to the manufacturer protocol.
# [2] = rat, in vivo
# Description: as §1, §2
# All Rats were sacrificed on the same day under anesthesia using diethyl ether (Fisher Scientific UK Ltd, Loughborough, UK) a week after the last injection. […]
# [3] = test system: male Wistar rats; assay: Haematological profile / erythrocyte indices (Sysmex XS 500) of treated rats
# Description: as §1, §2, §3
# Whole blood samples (1 ml) collected on EDTA were processed on Sysmex XS 500 (Sysmex, IL, USA) for the measurement of hemoglobin concentrations, RBCs count, packed cell volume (PCV), mean corpuscular volume (MCV), mean corpuscular hemoglobin (MCH) an mean corpuscular hemoglobin concentration (MCHC).
substance,measurement,setting,value
Pegylated interferon-α-2a [P Group],ALP,[1],125.7 ± 9.7 IU/L
same,ALT,[1],71.2 ± 6.7 U/L
same,AST,[1],81.8 ± 7.3 U/L
same,Creatinine,[1],0.2 ± 0.08 mg/dL
same,Total Bilirubin,[1],0.48 ± 0.16 mg/dL
same,Urea,[1],52.3 ± 4^ mg/dL
same,25-OH Vitamin D,[2],39.6 ± 6.7 ng/mL
same,effect on erythrocyte parameters compared to Control group,"[3]; male Wistar rats, 5 weeks, p>0.05",did not affect
same,Hb,"[3]; rat, in vivo",14.7 ± 0.4 g/dL
same,MCH,"[3]; rat, in vivo",17.8 ± 0.9 pg
same,MCHC,"[3]; rat, in vivo",33.8 ± 0.5 pg/dL
same,MCV,"[3]; rat, in vivo",62.7 ± 3.3 fL
same,PCV,"[3]; rat, in vivo",42.3 ± 3.1%
same,RBCs,"[3]; rat, in vivo",8.5 ± 0.8 ×10^6/μl
